Data reported in patent US11723362B2, “Broad-spectrum synergistic antimicrobial compositions” (The United States of America, as represented by the …, priority 2019, dated 2023).

Experiments:
Test in all cases: Minimum inhibitory concentration (MIC) in Mueller-Hinton broth, pH 7.4
S. aureus = assay type: cell-based, Staphylococcus aureus
Procedure: (§1) This example illustrates the preparation of testing parameters for antimicrobial activity of components of the inventive composition and related compositions for comparison. […] Microbes were grown on Mueller-Hinton agar (MHA, Sigma-Aldrich, St. Louis, Mo.) for 7 days until heavy sporulation was present. Spores from two agar plates were captured in sterile phosphate-buffered saline (PBS) using a sterile swab. Spores were enumerated by serial dilution in Dey-Engley neutralizing broth (DEB; Sigma-Aldrich) and spread plating on MHA. A typical spore stock was determined to contain ˜2×10^7 spores/mL. Bacteria were grown in MH broth for 24 h at 37° C., enumerated by plating, and diluted to the desired concentration as indicated.
(§2) To assess the antimicrobial activity of hydroxamic acids and derivatives, the inhibitory properties of commercially available hydroxylamines and hydroxamic acids were compared to their alcohol and carboxylic acid analogues diluted in Mueller-Hinton broth at pH 7.4 (Table 1).

P. aeruginosa = assay type: cell-based, Pseudomonas aeruginosa
Procedure: as §1, §2
Guanylhydrazones 7 and 8, which represent a class of broad-spectrum antimicrobials, alone and in combination with hydroxamic acids were evaluated.

A. brasiliensis = assay type: cell-based, Aspergillus brasiliensis
Procedure: as §1, §2

E. coli = assay type: cell-based, Escherichia coli
Procedure: as §1, §2

C. albicans = assay type: cell-based, Candida albicans
Procedure: as §1, §2

MIC (S. aureus): 0.03 wt %
MIC (P. aeruginosa): 0.06 wt %
MIC (A. brasiliensis): 0.5 wt %
MIC (E. coli): 0.2 wt %
MIC (C. albicans): 0.5 wt %
Structure (SMILES): O=C(NO)c1ccccc1O [Salicylhydroxamic acid]
